Like-named read-outs stand apart in the source and are kept apart here.
Legend:
[1] = target: LIMK1(h) (Homo sapiens, UniProt P53667); assay: LIMK1 kinase assay (Eurofins Panlabs, radiometric); assay type: biochemical; parameters: purchased Eurofins Panlabs Inc. (contract assay service)
[2] = target: LIMK2(h) (Homo sapiens, UniProt P53671); assay: biochemical
From the text: (specific activity and concentration as required). The reaction is initiated by the addition of the Mg/ATP mix.

The chains behind the UniProt entries cited, without tags or fusion partners. Where a name states a change or a piece, a line headed by the entry shows the natural chain unless it says otherwise.
UniProt P53667: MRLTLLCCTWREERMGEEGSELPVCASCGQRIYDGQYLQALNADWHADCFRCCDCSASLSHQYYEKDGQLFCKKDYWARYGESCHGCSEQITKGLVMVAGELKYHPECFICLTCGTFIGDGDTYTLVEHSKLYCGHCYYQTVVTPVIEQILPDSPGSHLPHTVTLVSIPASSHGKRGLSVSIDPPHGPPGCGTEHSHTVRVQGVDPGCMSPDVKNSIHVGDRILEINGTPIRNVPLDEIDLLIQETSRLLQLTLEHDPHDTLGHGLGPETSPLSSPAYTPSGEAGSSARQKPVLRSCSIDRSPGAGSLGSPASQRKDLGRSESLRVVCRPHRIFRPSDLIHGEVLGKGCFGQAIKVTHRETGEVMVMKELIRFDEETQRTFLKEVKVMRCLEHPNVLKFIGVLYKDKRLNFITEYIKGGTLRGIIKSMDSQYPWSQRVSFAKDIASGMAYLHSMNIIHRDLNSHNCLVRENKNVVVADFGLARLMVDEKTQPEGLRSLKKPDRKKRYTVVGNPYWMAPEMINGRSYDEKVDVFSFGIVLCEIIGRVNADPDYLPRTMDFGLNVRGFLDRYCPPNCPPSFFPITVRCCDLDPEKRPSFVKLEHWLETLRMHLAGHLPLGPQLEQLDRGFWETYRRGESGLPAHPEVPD
UniProt P53671: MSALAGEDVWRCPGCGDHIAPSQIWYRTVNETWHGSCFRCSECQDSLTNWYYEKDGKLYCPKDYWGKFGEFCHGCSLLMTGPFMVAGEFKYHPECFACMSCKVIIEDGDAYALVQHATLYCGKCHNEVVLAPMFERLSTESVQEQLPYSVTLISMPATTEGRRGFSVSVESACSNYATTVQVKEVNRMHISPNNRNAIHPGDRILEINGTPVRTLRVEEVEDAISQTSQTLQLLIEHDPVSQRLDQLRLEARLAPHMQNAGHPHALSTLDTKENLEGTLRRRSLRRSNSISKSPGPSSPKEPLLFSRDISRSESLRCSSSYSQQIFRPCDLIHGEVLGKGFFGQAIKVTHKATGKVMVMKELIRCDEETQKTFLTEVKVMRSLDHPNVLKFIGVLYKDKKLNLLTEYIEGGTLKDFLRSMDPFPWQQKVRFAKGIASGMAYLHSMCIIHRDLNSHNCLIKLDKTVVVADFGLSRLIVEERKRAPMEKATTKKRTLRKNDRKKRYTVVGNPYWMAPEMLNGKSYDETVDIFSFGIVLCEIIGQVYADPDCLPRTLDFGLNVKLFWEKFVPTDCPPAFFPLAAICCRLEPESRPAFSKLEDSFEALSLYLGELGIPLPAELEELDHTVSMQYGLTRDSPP

Structure (SMILES)	IC50 ([1]; 15 μM ATP, Table 8, read-out: IC50 LIMK1) [nM]	IC50 [1] [nM]	IC50 [2] [nM]
CNC(=O)Cc1nc(-c2cccc(NS(=O)(=O)c3c(F)cccc3F)c2F)c(-c2ccnc(Nc3ccccc3)n2)s1 [9 (Na)]	< 10	–	–
CNC(=O)Cc1nc(-c2cccc(NS(=O)(=O)c3c(F)cccc3F)c2F)c(-c2ccnc(Nc3ccccc3)n2)s1 [Compound 9, 2-(4-(3-(2,6-difluorophenylsulfonamido)-2-fluorophenyl)-5-(2-(phenylamino)pyrimidin-4-yl)thiazol-2-yl)-N-methylacetamide]	–	< 10	< 10
